Literature values, collected in patent publication US8637321B2, “Lipidomics approaches for central nervous system disorders” (priority 2005, dated 2014).

Settings: 26-week randomized trial of 317 schizophrenic patients; versus those randomized to aripiprazole; cited from earlier work

For `Cc1cc2c(s1)Nc1ccccc1N=C2N1CCN(C)CC1` [Olanzapine, olanzapine], the “development of weight gain and total cholesterol/triglyceride elevations” value is given as “more likely”.
